# Test results: PMC9617675 (Antiviral Research, 2022)
# Molecular target: SARS-CoV-2 M^pro (Severe acute respiratory syndrome coronavirus 2, UniProt P0DTD1)
compound,measurement,value
O=C[C@H](C[C@@H]1CCNC1=O)NC(=O)[C@H](CC1CCCCC1)NC(=O)c1cc2ccccc2[nH]1 [FB2001],dissociation from SARS-CoV-2 M^pro compared with PF-07321332,more difficult to dissociate
